Data as given in US6924302B2, “Substituted triazole diamine derivatives as kinase inhibitors” (Ortho McNeil Pharmaceutical, Inc., priority 2000, dated 2005).

How the values were obtained:
[1] = target: T1, Protein Kinase A (Bos taurus, UniProt P00517); experiment: Kinase Selectivity Assay Protein Kinase A; assay type: biochemical, bovine
T1 construct: purified from bovine heart; purchased Upstate Biotech 14-114; host or cells: bovine heart
Procedure: (§1) Assays to test compound inhibition of other kinases were preformed using methods that measure the amount of phosphorylation of a biotinylated peptide substrate. Biotinylated peptide substrates were selected from the literature as appropriate for the enzyme being evaluated. […] Assay conditions vary slightly for each protein kinase, for example, insulin receptor kinase requires 10 mM MnCl2 for activity and Calmodulin-dependent protein kinase requires calmodulin and 10 mM CaCl2. These assay conditions are known in the art. The reaction mixture was dispensed into the wells of a streptavidin coated Flashplate and 1 μl drug stock in 100% DMSO was added to a 100 μl reaction volume resulting in a final concentration of 1% DMSO on the reaction. Enzyme was diluted in 50 mM Tris-HCl pH=8.0, 0.1% BSA and add to each well. The reaction was incubated for one hour at 30° C. in the presence of compound. […] The plate was read on a scintillation counter to determine ^33P-γ-ATP incorporated into the immobilized peptide. […] A maximum and minimum signal for the assay was determined on each plate. The IC50 was calculated from the dose response curve of the percent inhibition of the maximum signal in the assay according to the formula [max signal—background/test compound signal—background (100)=% inhibition] by graphing the percent inhibition against the log concentration of test compound. […]

[2] = target: Insulin Receptor Kinase (Homo sapiens, UniProt P06213); experiment: Kinase Selectivity Assay Insulin Receptor Kinase; assay type: biochemical
Procedure: as §1

Row | Structure (SMILES) | IC50 [1] | IC50 [2]
1 | Cc1cc(C)c(C(=O)n2nc(Nc3ccc(NS(C)(=O)=O)cc3)nc2N)s1 [Cpd 108, N-[4-[[5-amino-1-[(3,5-dimethyl-2-thienyl)carbonyl]-1H-1,2,4-triazol-3-5 yl]amino]phenyl]-methanesulfonamide] | > 100000 nM | –
2 | CCc1ccc(C(=O)n2nc(Nc3ccc(S(=O)(=O)Nc4ccccn4)cc3)nc2N)s1 [Cpd 119] | – | 159 nM
